This is an account of results in patent US12240855B2, “Pyrrolopyrazole derivative” (DAIICHI SANKYO COMPANY, LIMITED, priority 2019, dated 2025).

Assay [1] deals with PTDSS2 gene-disrupted (PTDSS2-KO) HCT116 cells. The experiment in a line: cells. Conditions: Homo sapiens, HCT-116, 72 h, read-out: Test Example 3 PTDSS2-KO HCT116 GI50.
Assay [2] has as its system HCT116 cells. As to the kind of experiment: cells. The following applies: Homo sapiens, HCT-116, 72 h, read-out: Test Example 3 HCT116 GI50.

One may read the GI50 as the concentration that inhibits growth by half. For `CCc1cc(C2c3c(-c4cccc5[nH]c(=O)oc45)n[nH]c3C(=O)N2CC(C)(F)F)ccc1Cl` (single isomer, unassigned) [Example 17, 7-[4-(4-Chloro-3-ethylphenyl)-5-(2,2-difluoropropyl)-6-oxo-1,4,5,6-tetrahydropyrrolo[3,4-c]pyrazol-3-yl]-1,3-benzoxazol-2(3H)-one (enantiomer)], the GI50 was 0.047 µM in assay [1] and 13 µM in assay [2].
On the same counts, the results for `CC(F)(F)CN1C(=O)c2[nH]nc(-c3cccc4[nH]c(=O)oc34)c2C1c1ccc(Oc2ccc(Cl)cc2)cc1F` (single isomer, unassigned; (-)) [Example 58, (−)-7-{4-[4-(4-Chlorophenoxy)-2-fluorophenyl]-5-(2,2-difluoropropyl)-6-oxo-1,4,5,6-tetrahydropyrrolo[3,4-c]pyrazol-3-yl}-1,3-benzoxazol-2(3H)-one] are 0.05 µM and 8.8 µM.
In the same order, the values of `CC(F)(F)CN1C(=O)c2[nH]nc(-c3cccc4[nH]c(=O)oc34)c2C1c1ccc(Oc2cc(Cl)cc(C(F)(F)F)c2)cc1` (single isomer, unassigned) [Example 49, 7-[4-{4-[3-Chloro-5-(trifluoromethyl)phenoxy]phenyl}-5-(2,2-difluoropropyl)-6-oxo-1,4,5,6-tetrahydropyrrolo[3,4-c]pyrazol-3-yl]-1,3-benzoxazol-2(3H)-one (enantiomer)] are 0.016 µM and 7.8 µM.
On the same counts, the results for `CC(F)(F)CN1C(=O)c2[nH]nc(-c3cccc4[nH]c(=O)oc34)c2C1c1ccc(Oc2ccc(Cl)cc2)nn1` (stereo not shown) [Example 75, 7-{4-[6-(4-Chlorophenoxy)pyridazine-3-yl]-5-(2,2-difluoropropyl)-6-oxo-1,4,5,6-tetrahydropyrrolo[3,4-c]pyrazol-3-yl}-1,3-benzoxazol-2(3H)-one] are 3.4 µM and 18 µM.
Turning to `CC(F)(F)CN1C(=O)c2[nH]nc(-c3cccc4[nH]c(=O)oc34)c2C1c1ccc(Oc2ccc(OC(F)(F)F)c(Cl)c2)cc1F` (single isomer, unassigned) [Example 65, 7-[4-{4-[3-Chloro-4-(trifluoromethoxy)phenoxy]-2-fluorophenyl}-5-(2,2-difluoropropyl)-6-oxo-1,4,5,6-tetrahydropyrrolo[3,4-c]pyrazol-3-yl]-1,-benzoxazol-2(3H)-one (enantiomer)], the GI50 turned out to be 0.016 µM in assay [1] and 7.9 µM in assay [2].
On the same counts, the results for `CC(F)(F)CN1C(=O)c2[nH]nc(-c3cccc4[nH]c(=O)oc34)c2C1c1ccc(OC(F)(F)F)cc1` (single isomer, unassigned) [Example 22, 7-{5-(2,2-Difluoropropyl)-6-oxo-4-[4-(trifluoromethoxy)phenyl]-1,4,5,6-tetrahydropyrrolo[3,4-c]pyrazol-3-yl]-1,3-benzoxazol-2(3H)-one (enantiomer)] are 0.86 µM and 21 µM.
For the compound `CC(F)(F)CN1C(=O)c2[nH]nc(-c3cccc4[nH]c(=O)[nH]c34)c2C1c1ccc(Oc2ccc(Cl)cc2)cc1` (stereo not shown) [Example 94, 4-{4-[4-(4-Chlorophenoxy)phenyl]-5-(2,2-difluoropropyl)-6-oxo-1,4,5,6-tetrahydropyrrolo[3,4-c]pyrazol-3-yl}-1,3-dihydro-2H-benzimidazole-2-one], the GI50 stood at 3.6 µM in assay [1] and 7.4 µM in assay [2].
In the same order, the values of `CCCCCCc1ccc(C2c3c(-c4cccc5[nH]c(=O)oc45)n[nH]c3C(=O)N2CC(C)(F)F)cc1` (single isomer, unassigned) [Example 21, 7-[(4)-5-(2,2-Difluoropropyl)-4-(4-hexylphenyl)-6-oxo-1,4,5,6-tetrahydropyrrolo[3,4-c]pyrazol-3-yl]-1,3-benzoxazol-2(3H)-one (enantiomer)] are 0.028 µM and 8.4 µM.
